{
  "sequences": {"note": "Chains of the proteins cited; added tags and fusions are not shown. Lines headed by an entry give the natural chain unless they say otherwise; changes in a name come on top.", "UniProt O43318": "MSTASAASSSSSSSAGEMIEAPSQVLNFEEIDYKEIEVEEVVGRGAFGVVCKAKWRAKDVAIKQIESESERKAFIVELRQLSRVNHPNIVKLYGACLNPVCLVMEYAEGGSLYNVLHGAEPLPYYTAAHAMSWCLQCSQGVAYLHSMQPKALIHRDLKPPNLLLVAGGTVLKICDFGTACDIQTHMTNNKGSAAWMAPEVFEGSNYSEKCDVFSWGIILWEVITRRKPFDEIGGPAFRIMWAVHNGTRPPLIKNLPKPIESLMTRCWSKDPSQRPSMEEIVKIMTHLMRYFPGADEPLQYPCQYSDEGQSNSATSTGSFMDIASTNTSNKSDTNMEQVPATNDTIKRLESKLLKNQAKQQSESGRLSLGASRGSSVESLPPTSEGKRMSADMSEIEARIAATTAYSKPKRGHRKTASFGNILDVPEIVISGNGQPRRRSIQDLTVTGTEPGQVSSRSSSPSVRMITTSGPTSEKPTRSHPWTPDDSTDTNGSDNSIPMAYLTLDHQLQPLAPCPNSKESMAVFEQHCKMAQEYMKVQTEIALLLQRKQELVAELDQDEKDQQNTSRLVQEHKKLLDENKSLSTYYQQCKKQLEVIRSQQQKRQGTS", "UniProt P08631": "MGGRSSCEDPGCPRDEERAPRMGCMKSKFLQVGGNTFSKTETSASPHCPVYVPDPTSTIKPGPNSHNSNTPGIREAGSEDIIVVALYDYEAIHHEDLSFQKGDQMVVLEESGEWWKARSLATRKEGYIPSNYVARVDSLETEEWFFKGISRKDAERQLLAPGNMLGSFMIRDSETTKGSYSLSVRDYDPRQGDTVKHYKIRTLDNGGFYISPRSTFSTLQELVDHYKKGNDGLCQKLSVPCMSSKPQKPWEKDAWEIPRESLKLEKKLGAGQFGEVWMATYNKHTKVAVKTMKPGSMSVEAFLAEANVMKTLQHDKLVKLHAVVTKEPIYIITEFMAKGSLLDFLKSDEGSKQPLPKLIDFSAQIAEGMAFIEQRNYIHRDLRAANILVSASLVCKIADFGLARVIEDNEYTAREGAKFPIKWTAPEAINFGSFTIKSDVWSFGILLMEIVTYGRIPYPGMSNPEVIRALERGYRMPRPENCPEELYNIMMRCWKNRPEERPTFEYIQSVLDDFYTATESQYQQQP"},
  "source": "patent US10597387B2",
  "about": "“Methods to treat lymphoplasmacytic lymphoma” (Dana-Farber Cancer Institute, Inc., priority 2013, dated 2020)",
  "key": {"[1]": {"molecular_target": "TAK1 (Homo sapiens (Human), UniProt O43318)", "assay": "Invitrogen Select Screening kinase assay", "type": "biochemical", "details": "in vitro"}, "[2]": {"molecular_target": "HCK (Homo sapiens (Human), UniProt P08631)", "assay": "Invitrogen Select Screening kinase assay", "type": "biochemical", "details": "in vitro, read-out: HCK IC50 (nM) Inv"}},
  "data": [
    {"smiles": "Cc1ccc(C(=O)Nc2cccc(C(C)(C)C#N)c2)cc1NC(=O)c1cncc(-c2cccs2)c1", "note": "[I-6, N-(5-((3-(2-cyanopropan-2-yl)phenyl)carbamoyl)-2-methylphenyl)-5-(thiophen-2-yl)nicotinamide]", "values": [
      {"measurement": "IC50", "setting": "[1]", "result": "> 3330", "unit": "nM"},
      {"measurement": "IC50", "setting": "[2]", "result": 29.9, "unit": "nM"}
    ]},
    {"smiles": "CCN1CCN(Cc2ccc(C(=O)Nc3ccc(C)c(NC(=O)c4cncc(-c5cccs5)c4)c3)cc2C(F)(F)F)CC1", "note": "[I-1, N-(5-(4-((4-ethylpiperazin-1-yl)methyl)-3-(trifluoromethyl)benzamido)-2-methylphenyl)-5-(thiophen-2-yl)nicotinamide]", "values": [
      {"measurement": "IC50", "setting": "[1]", "result": 8210, "unit": "nM"},
      {"measurement": "IC50", "setting": "[2]", "result": 7.4, "unit": "nM"}
    ]}
  ]
}
